Measured values reported in article PMC11408749.

By UniProt entry, the sequences of proteins in these tests, tags left out. Residues count along the entry.
UniProt Q9UJW3, 179-379: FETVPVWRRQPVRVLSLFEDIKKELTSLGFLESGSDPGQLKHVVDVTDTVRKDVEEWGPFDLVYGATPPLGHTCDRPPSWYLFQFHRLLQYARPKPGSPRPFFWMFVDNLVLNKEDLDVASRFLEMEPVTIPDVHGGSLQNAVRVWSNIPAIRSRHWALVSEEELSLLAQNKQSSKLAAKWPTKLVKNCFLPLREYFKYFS

Target: DNA MTase‐like domain of DNMT3L (residues 179–379) (UniProt Q9UJW3)
Experiment: AUC; sedimentation velocity, 40,000 rpm, 15 h, 20 C; 20 mM Tris-HCl pH 8.0, 300 mM NaCl, 1 mM TCEP, 5% glycerol; WT DNMT3BΔ214-3L at 2.5, 5.0 and 6.25 uM, mutant complexes at 5 uM; c(s) model in SEDFIT

DNMT3BΔ214 (residues 215–853), wild type
percent of the population in the DNMT3B-3L heterodimer peak (78 kDa); the rest mostly hetero-tetramer: a minor peak with an estimated MW of 78 kDa (2%)
